In PubChem BioAssay AID651674 (The Scripps Research Institute Molecular Screening Center, 2012) one finds inhibition data, which are given here for one molecule.

By UniProt entry, the sequences of proteins in these tests, tags left out.
UniProt P41235, whole entry: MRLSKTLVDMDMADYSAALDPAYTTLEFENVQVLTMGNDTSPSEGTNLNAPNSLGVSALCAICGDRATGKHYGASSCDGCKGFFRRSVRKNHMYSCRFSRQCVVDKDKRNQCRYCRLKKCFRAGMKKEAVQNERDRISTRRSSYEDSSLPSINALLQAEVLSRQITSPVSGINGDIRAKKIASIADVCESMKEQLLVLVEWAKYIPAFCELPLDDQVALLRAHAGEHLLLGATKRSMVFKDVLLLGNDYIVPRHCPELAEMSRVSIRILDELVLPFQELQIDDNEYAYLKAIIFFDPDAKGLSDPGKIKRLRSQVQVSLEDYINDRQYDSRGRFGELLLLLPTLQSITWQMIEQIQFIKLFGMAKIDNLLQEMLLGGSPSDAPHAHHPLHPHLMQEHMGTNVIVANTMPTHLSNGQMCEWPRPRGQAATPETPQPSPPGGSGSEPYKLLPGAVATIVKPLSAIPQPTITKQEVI

The list shows a part of the results, in another mix than the full data. Activity calls are given as the source filed them.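 The calls were made as follows: active = mean inhibition across replicate wells exceeding the computed hit threshold (cut at about 13% in these data); inactive = the rest.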

This assay addresses Hepatocyte nuclear factor 4-alpha (Homo sapiens) (UniProt P41235). Description: HNF4 dimerization inhibitors, counter-screen for ABHD5-PLIN5 interaction inhibitor project, biochemical, split-luciferase complementation, luminescence (AID 651674).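 Also: light from luciferase halves that rejoin when HNF4 fusion proteins dimerize; 0% = DMSO only wells and the 100% control is not given.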 Conditions: at 4 µM, stronger effect = higher value. (In general: A counterscreen serves to expose hits that act by an unwanted route or on another target.)
As usually defined, the inhibition is the drop in the measured response relative to a control, in per cent. For `CCC(=O)N(c1ccccc1)C1(COC)CCN(CCc2cccs2)CC1`, the inhibition was active: 30.4%.
